{"source": "patent US10111885B2", "about": "“Compositions and therapeutic methods for the treatment of complement-associated diseases” (Resverlogix Corp., priority 2015, dated 2018)", "key": {"C9 mRNA": {"tested_on": "C9 mRNA", "experiment": "mRNA expression in humanized livers of chimeric mice", "assay_type": "in vivo, chimeric mice with humanized livers", "details": "150 mg/kg b.i.d. oral gavage, 3 days, liver; p < 0.01", "method": "(§1) In this example, chimeric mice with humanized livers were generated by transplanting human hepatocytes into urokinase-type plasminogen activator^+/+/severe combined immunodeficient transgenic mice. Replacement with human hepatocytes can reach 80-90%. This mouse model can be used to determine the effect of compounds, including those compounds in the present invention, on regulating mRNA levels in human hepatocytes in vivo. Mice were treated with 150 mg/kg b.i.d. with RVX000222 or vehicle by oral gavage for 3 days. Livers were harvested and RNA levels determined by real-time PCR using human specific TaqMan primer probes and cyclophilin A as an endogenous control. Table 5 lists the reduction in the levels of the indicated mRNAs. *p<0.05, **p<0.01 versus vehicle treated animals using 2-tailed student's t-tests."}, "[1]": {"tested_on": "complement component 4 (C4) mRNA", "experiment": "mRNA expression in humanized livers of chimeric mice", "assay_type": "in vivo, chimeric mice with humanized livers", "details": "150 mg/kg b.i.d. oral gavage, 3 days, liver; p < 0.05", "method": "as §1"}, "[2]": {"tested_on": "complement component 5 (C5) mRNA", "experiment": "mRNA expression in humanized livers of chimeric mice", "assay_type": "in vivo, chimeric mice with humanized livers", "details": "150 mg/kg b.i.d. oral gavage, 3 days, liver", "method": "as §1"}, "[3]": {"tested_on": "complement component 3 (C3) mRNA", "experiment": "mRNA expression in humanized livers of chimeric mice", "assay_type": "in vivo, chimeric mice with humanized livers", "details": "150 mg/kg b.i.d. oral gavage, 3 days, liver", "method": "as §1"}, "[4]": {"tested_on": "mannose-binding lectin 2 (MBL2) mRNA", "experiment": "mRNA expression in humanized livers of chimeric mice", "assay_type": "in vivo, chimeric mice with humanized livers", "details": "150 mg/kg b.i.d. oral gavage, 3 days, liver; p < 0.01", "method": "as §1"}, "C3 protein": {"tested_on": "C3 protein", "experiment": "Secreted complement protein ELISA, primary human hepatocytes", "assay_type": "cell-based", "details": "30 uM, primary human hepatocytes treated simultaneously with IL-6", "method": "(§2) In this example, protein secretion from cells grown in culture in the presence of compound of interest was analyzed by enzyme linked immunosorbent assay (ELISA). In some cases, cultured cells were treated with cytokines and the compound of interest to mimic an inflammatory state. The method can be used to determine the effect of compounds, including those in the present invention, on the secretion of specific proteins from cells grown in culture under basal and cytokine stimulated (i.e. inflammatory) conditions (Table 7, FIGS. 5 and 6).\n(§3) Huh-7 cells (JCRB Cell Bank) were introduced to 24-well plates in 500 μL DMEM supplemented with 10% (v/v) FBS, 100 U/mL penicillin, 100 ug/mL streptomycin and 5 ug/mL plasmocin (all reagents from Gibco, except for the former, which comes from Invivogen) at 200 000 cells/well. After 24 h, cells were treated with the compound of interest and/or cytokines in DMEM with 10% FBS containing 0.1% DMSO for a total treatment time of 72 h. Fresh media containing compounds and/or cytokines was introduced in the final 24 h of the experiment. At harvest, media were collected, debris was removed by brief centrifugation, and ELISA assays for the indicated proteins were performed as per the manufacturer's protocol. To correct for differences in cell numbers, values obtained for complement proteins were normalized to values for transferrin. HepG2 cells (ATCC) were cultured in MEM containing 10% FBS, 1× non-essential amino acids, 1 mM sodium pyruvate, 2 mM L-glutamine, 100 U/mL penicillin, 100 ug/mL streptomycin and 5 ug/mL plasmocin. Serum amount was reduced to 0.5% when compounds were present. Treatment combinations and timing were as described above for Huh-7 cells. Primary human hepatocytes (CellzDirect/Life Technologies) were plated in collagen coated 96-well plates at 70 000 cells/well, then overlaid with Matrigel™ as recommended by the supplier. Cells were treated with compounds of interest with or without the indicated cytokines for a total of 72 h in the recommended media supplemented with 10% FBS and 0.1% DMSO (v/v). Media were collected for measurements of secreted proteins.\n(§4) The ELISA kits for detection of complement C3, C4, C5 and C9 were obtained from AssayPro (St. Charles, Mo.), while the ELISA reagents for transferrin detection were from Bethyl Laboratories (Montgomery, Tex.). Data were collected on a Thermo Scientific Multiskan GO apparatus. Downregulation of expression of components of the complement cascade will result in reduced activity of the pathway and thus will constitute a positive result. Table 7: FIGS. 5 and 6 list the amount of C3, C4, C5 and C9 protein that are detected in the media of cells treated with RVX000222 (compared to DMSO)."}, "C4 protein": {"tested_on": "C4 protein", "experiment": "Secreted complement protein ELISA, primary human hepatocytes", "assay_type": "cell-based", "details": "30 uM, primary human hepatocytes treated simultaneously with IL-6", "method": "as §2, §3, §4"}, "C5 protein": {"tested_on": "C5 protein", "experiment": "Secreted complement protein ELISA, primary human hepatocytes", "assay_type": "cell-based", "details": "30 uM, primary human hepatocytes treated simultaneously with IL-6", "method": "as §2, §3, §4"}, "C9 protein": {"tested_on": "C9 protein", "experiment": "Secreted complement protein ELISA, primary human hepatocytes", "assay_type": "cell-based", "details": "30 uM, primary human hepatocytes treated simultaneously with IL-6", "method": "as §2, §3, §4"}, "MBL2 mRNA": {"tested_on": "MBL2 mRNA", "experiment": "Complement mRNA expression in primary human hepatocytes", "assay_type": "cell-based", "details": "30 uM, maximum at 24 h, single donor", "method": "(§5) Huh-7 and HepG2 cells are liver-derived cell lines and are models for what can occur in the liver. Huh-7 cells (JCRB Cell Bank) were introduced to 96-well plates (^˜2.5×10^5 per well) in 100 μL DMEM containing 10% (v/v) FBS, 100 U/mL penicillin, 100 ug/mL streptomycin and 5 ug/mL plasmocin (all reagents from Gibco, except for the former, which was obtained from Invivogen). After 24 h, Huh-7 cells were treated with compounds in the same media formulation used for plating, and supplemented with 0.1% DMSO for the amount of time indicated in tables 2, 3, and 4. For select experiments, 24 h post-plating, cells were treated with cytokines and the compound of interest simultaneously, for a total treatment time of 48 h. Alternatively, 24 h after plating, cells were pre-treated with cytokines for 24 h before adding the compound of interest for 48 h. HepG2 cells (ATCC) were cultured in 96-well plates (^˜2.5×10^5 per well) in MEM containing 10% FBS, 1× non-essential amino acids, 1 mM sodium pyruvate, 2 mM L-glutamine, 100 U/mL penicillin, 100 ug/mL streptomycin and 5 ug/mL plasmocin. Serum amount was reduced to 0.5% for treatments with compound or cytokines. Timing of treatment of HepG2 cells with compounds and cytokines was as described for Huh-7 cells. Primary human hepatocytes (CellzDirect/Life Technologies) were plated in collagen coated 96-well plates at 70 000 cells/well, then overlaid with Matrigel™ as recommended by the supplier. Cells were treated with compounds of interest and/or cytokines for the indicated time points in the recommended media supplemented with 0.1% DMSO and 10% FBS (v/v). Cells were harvested by mRNA Catcher PLUS Kit (Life Technologies) followed by real-time PCR using the RNA UltraSense One-Step qRT-PCR System. The level of the mRNA of interest was measured by TaqMan real-time PCR relative to the endogenous control cyclophilin A in the same sample. Data were acquired using the ViiA-7 Real Time PCR System (Applied Biosystems).\n(§6) Downregulation of expression of components of the complement cascade will result in reduced activity of the pathway and thus will constitute a positive result. Tables 2 and 3 list the concentration of compounds at which the level of the indicated mRNA is reduced by 50%, as well as the duration of treatment with compound. Table 4 lists the maximum reduction in the indicated mRNA measured in primary human hepatocytes treated with compounds for up to 72 hours. FIGS. 1, 2, 3 and 4 show effects of compounds on cytokine-induced (i.e. inflammatory) expression of complement genes in Huh-7 cells and HepG2 cells."}, "complement C9 mRNA": {"tested_on": "complement C9 mRNA", "experiment": "Complement mRNA expression in primary human hepatocytes", "assay_type": "cell-based", "details": "30 uM, maximum at 72 h, single donor", "method": "as §5, §6"}, "complement C5 mRNA": {"tested_on": "complement C5 mRNA", "experiment": "Complement mRNA expression in primary human hepatocytes", "assay_type": "cell-based", "details": "30 uM, maximum at 24 h, single donor", "method": "as §5, §6"}, "complement C4 mRNA": {"tested_on": "complement C4 mRNA", "experiment": "Complement mRNA expression in primary human hepatocytes", "assay_type": "cell-based", "details": "30 uM, maximum at 72 h, single donor", "method": "as §5, §6"}, "complement C3 mRNA": {"tested_on": "complement C3 mRNA", "experiment": "Complement mRNA expression in primary human hepatocytes", "assay_type": "cell-based", "details": "30 uM, maximum at 24 h, single donor", "method": "as §5, §6"}, "complement C2 mRNA": {"tested_on": "complement C2 mRNA", "experiment": "Complement mRNA expression in primary human hepatocytes", "assay_type": "cell-based", "details": "30 uM, maximum at 72 h, single donor", "method": "as §5, §6"}, "complement C1S mRNA": {"tested_on": "complement C1S mRNA", "experiment": "Complement mRNA expression in primary human hepatocytes", "assay_type": "cell-based", "details": "30 uM, maximum at 72 h, single donor", "method": "as §5, §6"}}, "note": "Marks after values point to notes of the source that are not given here.", "data": [{"compound": "COc1cc(OC)c2c(=O)[nH]c(-c3cc(C)c(OCCO)c(C)c3)nc2c1", "note": "[RVX000222, 2-(4-(2-hydroxyethoxy)-3,5-dimethylphenyl)-5,7-dimethoxyquinazolin-4(3H)-one]", "values": [{"measurement": "C9 average % reduction in expression relative to vehicle treated mice", "setting": "C9 mRNA", "result": 45, "unit": "%**"}, {"measurement": "C4 average % reduction in expression relative to vehicle treated mice", "setting": "[1]", "result": 36, "unit": "%*"}, {"measurement": "C5 average % reduction in expression relative to vehicle treated mice", "setting": "[2]", "result": 17, "unit": "%"}, {"measurement": "C3 average % reduction in expression relative to vehicle treated mice", "setting": "[3]", "result": 20, "unit": "%"}, {"measurement": "MBL2 average % reduction in expression relative to vehicle treated mice", "setting": "[4]", "result": 61, "unit": "%**"}, {"measurement": "secretion of C3 protein (FIG. 6)", "setting": "C3 protein", "result": "reduces secretion"}, {"measurement": "secretion of C4 protein (FIG. 6)", "setting": "C4 protein", "result": "reduces secretion"}, {"measurement": "secretion of C5 protein (FIG. 6)", "setting": "C5 protein", "result": "reduces secretion"}, {"measurement": "secretion of C9 protein (FIG. 6)", "setting": "C9 protein", "result": "reduces secretion"}, {"measurement": "MBL2 percent maximal reduction in gene expression", "setting": "MBL2 mRNA", "result": "92% (24 h)"}, {"measurement": "C9 percent maximal reduction in gene expression", "setting": "complement C9 mRNA", "result": "86% (72 h)"}, {"measurement": "C5 percent maximal reduction in gene expression", "setting": "complement C5 mRNA", "result": "38% (24 h)"}, {"measurement": "C4 percent maximal reduction in gene expression", "setting": "complement C4 mRNA", "result": "44% (72 h)"}, {"measurement": "C3 percent maximal reduction in gene expression", "setting": "complement C3 mRNA", "result": "13% (24 h)"}, {"measurement": "C2 percent maximal reduction in gene expression", "setting": "complement C2 mRNA", "result": "35% (72 h)"}, {"measurement": "C1S percent maximal reduction in gene expression", "setting": "complement C1S mRNA", "result": "27% (72 h)"}]}]}
